Experimental data as given in patent publication US12606546B2, “Small molecule inhibitors of calcium channel activity and uses thereof” (Arizona Board of Regents on Behalf of the University of …, priority 2020, dated 2026).

Assays:
[1] = system: CaV3.1, CaV3.2 or CaV3.3 T-type Ca2+ channel subunits; assay: 40 mM KCl-evoked Ca2+ influx in DRG neurons after siRNA knockdown of CaV3 isoforms
naive rats = assay: Elevated plus maze (EPM) test; conditions: 2 μg/5 μL i.t., 1 hour post injection vs vehicle
[2] = system: calcitonin gene related peptide (CGRP) release; assay: KCl-evoked CGRP release from lumbar spinal cord; conditions: 20 μM, 90 mM KCl
[3] = system: tetrodotoxin-sensitive or -resistant voltage-gated sodium currents; assay: Whole-cell patch clamp of Na+ currents in DRG neurons; conditions: 20 μM overnight, TTX-sensitive or -resistant
paclitaxel-treated rats = assay: Paclitaxel-induced neuropathy, mechanical allodynia; conditions: 2 μg/5 μL intrathecal; at two hours post-injection, lasting at least two hours
[4] = molecular target: low voltage activated (LVA) T-type calcium channels (Rattus norvegicus, UniProt Q9EQ60); assay: Fura-2AM calcium imaging, 40 mM KCl-evoked Ca2+ influx in DRG neurons; assay type: cell-based; conditions: 20 μM, maximum with overnight treatment
R-type (CaV2.3) = R-type (CaV2.3) (Rattus norvegicus, UniProt Q07652); assay: Whole-cell patch clamp, pharmacologically isolated R-type currents in DRG neurons; conditions: 20 μM applied overnight
[5] = system: substantia gelatinosa neurons; assay: Spontaneous EPSC recording in spinal cord slices; conditions: 20 μM
[6] = system: adenocarcinomic human alveolar basal epithelial (A549) cells; assay: Cytotoxicity in A549 cells; conditions: read-out: cytotoxic concentration, CC50
T-type Ca2+ channels = T-type Ca2+ channels (Rattus norvegicus, UniProt Q9EQ60); assay: Whole-cell patch clamp of T-type Ca2+ currents in DRG sensory neurons
L-type (CaV1.x) = assay: Whole-cell patch clamp, pharmacologically isolated L-type currents in DRG neurons; conditions: 20 μM applied overnight
SNL rats = assay: Spinal nerve ligation (SNL) model, mechanical allodynia; conditions: 2 μg/5 μL intrathecal
rats = assay: Rotarod performance test; conditions: intrathecal, over 300 minutes, cutoff 180 seconds (vehicle 172±7.3)
DRG sensory neurons = assay: Constellation pharmacology of DRG sensory neurons
[7] = system: high voltage activated calcium channels; assay: Fura-2AM calcium imaging, 90 mM KCl-evoked Ca2+ influx in DRG neurons; conditions: 20 μM overnight, rat DRG neurons, relative to 0.01% DMSO
P/Q-type (CaV2.1) = P/Q-type (CaV2.1) (Rattus norvegicus, UniProt P54282); assay: Whole-cell patch clamp, pharmacologically isolated P/Q-type currents in DRG neurons; conditions: 20 μM applied overnight
[8] = system: Madin-Darby Canine Kidney (MDCK) cells; assay: Cytotoxicity in MDCK cells; conditions: read-out: cytotoxic concentration, CC50
hERG channel = hERG channel (Homo sapiens, UniProt Q12809); assay: hERG two-electrode voltage clamp in oocytes; conditions: 10 μM
N-type (CaV2.2) = N-type (CaV2.2) (Rattus norvegicus, UniProt Q02294); assay: Whole-cell patch clamp, pharmacologically isolated N-type currents in DRG neurons; conditions: 20 μM applied overnight

C[C@@H](c1ccccc1)n1nnnc1[C@@H](c1ccsc1)N1CCC(n2c(=O)[nH]c3ccccc32)CC1
inhibition of 40 mM KCl evoked Ca2+ influx ([1]; knock down of CaV3.2, 20 μM overnight): failed to inhibit | inhibition of 40 mM KCl evoked Ca2+ influx ([1]; knockdown of CaV3.1, 20 μM overnight): significant inhibition | inhibition of 40 mM KCl evoked Ca2+ influx ([1]; knockdown of CaV3.3, 20 μM overnight): significant inhibition | inhibition of 40 mM KCl evoked Ca2+ influx ([1]; scramble siRNA-transfected cells, 20 μM overnight): 53% | anxiety index (EPM) (naive rats): no significant change in anxiety index | KCl-evoked CGRP release from spinal cords [2]: inhibits KCl-evoked CGRP release | effect on voltage-gated sodium currents [3]: no effects | mechanical allodynia, paclitaxel (paclitaxel-treated rats): reversal of mechanical allodynia | time of application after which inhibition was observed [4]: at least 30 minutes | effect on R-type (CaV2.3) current (R-type (CaV2.3)): had no effect | spontaneous EPSC amplitude ([5]; substantia gelatinosa neurons): no significant decrease | sEPSC frequency ([5]; substantia gelatinosa neurons (DMSO 1.96±0.21 Hz)): 1.26±0.17 Hz | CC50 [6]: > 100 µM | effect of acute application on T-type currents (T-type Ca2+ channels; acute (<10 min), 20 μM): no inhibition of T-type currents | effect on T-type channel gating properties (T-type Ca2+ channels; overnight treatment): did not alter the channel gating properties | effect on L-type (CaV1.x) current (L-type (CaV1.x)): had no effect | duration of increase of PWTs, SNL (SNL rats): 2 h | paw withdrawal thresholds (mechanical allodynia), SNL (SNL rats; 7 days post injury): significantly increased PWTs | time on the rotarod (average) (rats): 170 ± 9.6 s | AUC of Ca2+ response to capsaicin stimulation (DRG sensory neurons; 20 μM overnight vs vehicle): decreased | number of functional cell subclasses (DRG sensory neurons; 20 μM overnight vs vehicle): more functional subclasses were present | percent of cells responding to ATP (DRG sensory neurons; 20 μM overnight vs vehicle): increased sensitivity | percent of cells responding to capsaicin (DRG sensory neurons; 20 μM overnight vs vehicle): decreased sensitivity | KCl-evoked Ca2+ response in neurons that responded to ATP and menthol (DRG sensory neurons; 20 μM overnight, 90 mM KCl): significantly decreased | inhibition of Ca2+ influx when DRGs were depolarized with 90 mM KCl [7]: 33.9±4.0% | effect on P/Q-type (CaV2.1) current (P/Q-type (CaV2.1)): had no effect | CC50 [8]: > 100 µM | inhibition of hERG channel (hERG channel): did not inhibit | effect on N-type (CaV2.2) current (N-type (CaV2.2)): had no effect
